Results taken from patent US9487511B2, “Cyclopropanamine compound and use thereof” (Takeda Pharmaceutical Company Limited, priority 2014, dated 2016).

Amino acid sequences for entries named in this document (tags omitted).
UniProt P21397, whole entry: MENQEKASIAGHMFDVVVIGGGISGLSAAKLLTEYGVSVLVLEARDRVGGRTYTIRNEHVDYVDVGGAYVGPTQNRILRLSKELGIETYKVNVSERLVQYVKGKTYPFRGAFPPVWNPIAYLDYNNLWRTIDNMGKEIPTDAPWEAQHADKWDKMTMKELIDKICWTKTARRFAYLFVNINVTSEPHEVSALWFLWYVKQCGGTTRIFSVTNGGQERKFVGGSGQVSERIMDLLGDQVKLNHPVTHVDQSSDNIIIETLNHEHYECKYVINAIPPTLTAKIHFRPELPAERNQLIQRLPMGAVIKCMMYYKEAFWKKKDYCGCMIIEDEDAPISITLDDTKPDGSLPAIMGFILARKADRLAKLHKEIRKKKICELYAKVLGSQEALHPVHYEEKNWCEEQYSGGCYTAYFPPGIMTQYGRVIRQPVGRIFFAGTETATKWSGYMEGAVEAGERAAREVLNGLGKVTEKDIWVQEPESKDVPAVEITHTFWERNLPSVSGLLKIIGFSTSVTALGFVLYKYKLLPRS
UniProt P27338, whole entry: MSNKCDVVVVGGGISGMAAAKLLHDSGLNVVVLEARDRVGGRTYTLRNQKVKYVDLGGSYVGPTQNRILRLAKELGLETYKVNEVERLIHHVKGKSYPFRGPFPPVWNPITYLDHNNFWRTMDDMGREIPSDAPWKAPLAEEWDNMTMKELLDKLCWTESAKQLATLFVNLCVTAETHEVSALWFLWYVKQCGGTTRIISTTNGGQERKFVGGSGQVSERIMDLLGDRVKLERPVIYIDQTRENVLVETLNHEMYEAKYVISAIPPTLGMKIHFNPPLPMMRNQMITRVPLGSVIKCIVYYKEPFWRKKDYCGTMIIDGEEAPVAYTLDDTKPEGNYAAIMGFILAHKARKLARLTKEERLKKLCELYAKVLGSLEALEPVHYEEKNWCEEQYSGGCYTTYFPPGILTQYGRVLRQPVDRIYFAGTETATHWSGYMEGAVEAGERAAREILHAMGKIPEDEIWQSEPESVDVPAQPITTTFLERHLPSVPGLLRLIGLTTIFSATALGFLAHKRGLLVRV

Legend:
MAO-A enzyme = MAO-A enzyme (Homo sapiens (Human), UniProt P21397); assay: Measurement of MAO-A inhibitory activity (MAO-Glo Assay); assay type: biochemical
MAO-B enzyme = MAO-B enzyme (Homo sapiens (Human), UniProt P27338); assay: Measurement of MAO-B inhibitory activity (MAO-Glo Assay); assay type: biochemical
in vivo = conditions: male, ICR, mouse, hippocampus/plasma, po, 10 mg/kg, Ratio (hippocampus/plasma), Mean, male ICR mice, 10 mg/kg oral, 1 h after administration

| Compound | IC50 (MAO-A enzyme) [µM] | IC50 (MAO-B enzyme) [µM] | Kp at 1 h (in vivo) |
| --- | --- | --- | --- |
| Cc1sc(C(=O)NC2CCC(F)(F)CC2)cc1[C@@H]1C[C@H]1NC1CCOCC1 (relative stereo) [Example 21, N-(4,4-difluorocyclohexyl)-5-methyl-4-(trans-2-(tetrahydro-2H-pyran-4-ylamino)cyclopropyl)thiophene-2-carboxamide fumarate] | > 100 |  |  |
| Cn1cc(NC(=O)c2cc([C@@H]3C[C@H]3NCC3CC3)cs2)cn1 (relative stereo) [Example 62, 4-(trans-2-((cyclopropylmethyl)amino)cyclopropyl)-N-(1-methyl-1H-pyrazol-4-yl)thiophene-2-carboxamide dihydrochloride] |  | > 100 |  |
| O=C(NC1CCOCC1)c1cc([C@@H]2C[C@H]2NC2CCC2)cs1 (relative stereo) [Example 63, 4-(trans-2-(cyclobutylamino)cyclopropyl)-N-(tetrahydro-2H-pyran-4-yl)thiophene-2-carboxamide hydrochloride] | > 100 | > 100 |  |
| O=C(NC1CCOCC1)c1csc([C@@H]2C[C@H]2NCC2CC2)c1 [Example 71, 5-((1R,2R)-2-((cyclopropylmethyl)amino)cyclopropyl)-N-(tetrahydro-2H-pyran-4-yl)thiophene-3-carboxamide hydrochloride] |  |  | 0.358 |

Structures can show the parent of a compound that is named as a salt.
